Experimental findings from PubChem BioAssay AID504894 (National Center for Advancing Translational Sciences (NCATS), 2011) are described below.

Only a part is listed here, and it is no random draw. The source made the active and inactive calls. The call rests on the fitted dose curve; in most records, active means well fitted activation curve with a large enough effect; inconclusive means small, poorly fitted or top-dose-only effect, or another doubt; inactive means no such curve, though single readings can be large or run the other way.

The nature of this experiment: Activators of T cell receptors: qHTS campaign. Further: % of control where 0% means no effect. The settings on record: primary human leukocytes, anti-CD3, IL-2 HTRF, 48 h; at 9.22 µM (top of the series) unless noted. An excerpt:
Normally activation of naive T cells requires two signals. 1. A signal through the T cell receptor (TCR) which provides antigen specificity to the response. 2. Signals through co-stimulatory molecules, which are necessary for proliferation, survival and cytokine production. In the absence of co-stimulatory signals T cells are not effectively activated, and may even be rendered anergic or unresponsive to subsequent signaling. This lack of costimulation has been shown in multiple model systems to be a major factor in the limited strength and effectiveness of anti-tumor T cell responses. The goal of this project is to identify small molecule compounds that will stimulate T cell activation in the presence of TCR signaling but in the absence of co-stimulatory signals, thereby allowing activation of naive T cells in the absence of co-stimulation. Identification of such compounds would have clear experimental and clinical applications in instances where desirable antigen-specific immune responses are not generated due to a lack of co-stimulation, for example in the generation of anti-tumor responses. In collaboration between the National Cancer Institute and NIH Chemical Genomics Center, a high-throughput amenable screen was developed to discover small molecules that co-stimulate and activate human T cell receptors. The screen will be carried out using a novel homogeneous time resolved fluorescence energy transfer (HTRF) assay to measure production of the cytokine IL-2 by activated T cells and will be tested against the NIH Molecular Libraries Small Molecule Repository (MLSMR). NIH Chemical Genomics Center [NCGC] NIH Molecular Libraries Probe Centers Network [MLPCN] MLPCN Grant: MH090820-01 Assay Submitter (PI): Richard Hodes, National Cancer Institute, NIH
Primary human leukocytes are incubated with a-CD3 beads and compounds for 48 hr. The amount of secreted IL-2 is then assayed with a HTRF IL-2 kit. The presence of IL-2 cytokine captures the detection reagents and brings the a-IL-2-K and a-IL-2-d2 into close proximity. Upon excitation with 320nm light, the europium cryptate is capable of transferring energy to acceptor molecules within close proximity, resulting in acceptor molecule emission at 665nm.
Background: qHTS replaces the single test concentration by a dilution series.
With `CC1CCN(C(=O)Oc2c(Cl)cc(Cl)c3cccnc23)CC1`, the activation of IL-2 secretion is inactive: -1.28%.

Take `Nc1ccc([As](=O)(O)c2ccc(N)cc2)cc1`: the activation of IL-2 secretion is inactive: -2.66%.

Regarding `C[N+]1=C2C=CC=CC=C2SC12C([N+](=O)[O-])=CC([N+](=O)[O-])=C[C-]2[N+](=O)[O-]` (centres undefined), the activation of IL-2 secretion was inactive: 4.74%.

Turning to `CCN(/C(=N/P(=O)(N1CCOCC1)N1CCOCC1)N1CCOCC1)c1ccc(OC)cc1`, the activation of IL-2 secretion was inactive: 3.3%.

As to `O=C(Nc1cc([As](=O)(O)O)ccc1O)c1ccccc1`, the activation of IL-2 secretion is inactive: -2.69%.

On to `O=P1(N(CCCl)CCCl)OCCCS1` (centres undefined), for which the activation of IL-2 secretion was inactive: -3.05%.

As to `O=[N+]([O-])c1cccc(NC2=NCC(CBr)S2)c1` (centres undefined), the activation of IL-2 secretion was inactive: -5.23%.

As for `COC(=O)C1(C)COP(=O)(Nc2ccccc2)OC1` (centres undefined), the activation of IL-2 secretion is inactive: 2.91%.

Consider `O=C(O)CNc1ccc([As](=O)(O)O)cc1`, for which the activation of IL-2 secretion was inactive: 2.48%.

As to `CC(C)(C)C(=O)NC(Sc1ccncn1)C(Cl)(Cl)Cl` (centres undefined), the activation of IL-2 secretion is inactive: -16.1%.

As for `O=[N+]([O-])c1ncn(CCn2ncnc2[N+](=O)[O-])n1`, the activation of IL-2 secretion is inactive: -2.1%.

Take `CCOP(=O)(Nc1ccccc1)OCC`: the activation of IL-2 secretion is inactive: -0.25%.

Consider `Cc1cc(SC(NC(=O)c2ccc(F)cc2)C(Cl)(Cl)Cl)ncn1` (centres undefined), for which the activation of IL-2 secretion was inactive: -2.56% [at 46.1 µM].

Turning to `CN(C(=O)Cc1ccc(Cl)c(Cl)c1)[C@H]1CCCC[C@@H]1N1CCCC1`, the activation of IL-2 secretion was inactive: 4.32%.

As to `Cc1ccc(NP(=O)(Oc2ccccc2F)Oc2ccccc2F)nc1`, the activation of IL-2 secretion is inactive: -4.23%.

As for `O=C(O)c1ccccc1[As](=O)(O)O`, the activation of IL-2 secretion is inactive: 2.19%.

As to `CC(=O)Nc1ccc([As](=O)(O)O)cc1`, the activation of IL-2 secretion was inactive: 2.07%.

As for `CCCC1OP(N)(=O)OCC1CC` (centres undefined), the activation of IL-2 secretion is inactive: 0.182%.

Turning to `O=P(Nc1nc2ccc(Cl)cc2s1)(c1ccccc1)c1ccccc1`, the activation of IL-2 secretion is inactive: 4.57%.

In the case of `CCN(N=Nc1nonc1N)c1nonc1N`, the activation of IL-2 secretion is inactive: 1.34% [at 46.1 µM].

As for `Nc1cccc2ccc([As](=O)(O)O)cc12`, the activation of IL-2 secretion is inactive: 4.57%.

Turning to `COc1ccccc1OP(=O)(Nc1ccc(C)cn1)Oc1ccccc1OC`, the activation of IL-2 secretion was inactive: -0.609%.

In the case of `Cc1ccc(OP(=O)(Nc2nccs2)Oc2ccc(C)cc2)cc1`, the activation of IL-2 secretion is inactive: -1.1%.

`Clc1ccc(Cl)c(NC2=NCC(CBr)S2)c1` (centres undefined): the activation of IL-2 secretion was inactive: -5.27%.

With `CN1CCCC(OC(=O)C(c2ccccc2)c2ccccc2)C1` (centres undefined), the activation of IL-2 secretion is inactive: 0.724% [at 46.1 µM].

Take `NC(=O)c1cc([N+](=O)[O-])cc([N+](=O)[O-])c1N`: the activation of IL-2 secretion is inactive: -2.86%.

Take `CN(C(=O)Cc1ccc(Cl)c(Cl)c1)[C@H]1CCCC[C@H]1N1CCCC1`: the activation of IL-2 secretion was inactive: 6.07%.

With `Cc1ccc(N/C(=N/P(=O)(N2CCOCC2)N2CCOCC2)N2CCOCC2)cc1`, the activation of IL-2 secretion is inactive: -6.3%.

Consider `CC(C)CC(=O)NC(Sc1ccc(Cl)cc1)C(Cl)(Cl)Cl` (centres undefined), for which the activation of IL-2 secretion is inactive: -0.0818%.

For `Nc1cc(N)c2nonc2c1[N+](=O)[O-]`, the activation of IL-2 secretion is inactive: 4.54%.

In the case of `Oc1ccccc1CNc1ccccn1`, the activation of IL-2 secretion is inactive: 6.17%.

As for `O=C(NC(Sc1ccncn1)C(Cl)(Cl)Cl)c1ccccc1` (centres undefined), the activation of IL-2 secretion was inactive: 14.9% [at 46.1 µM].

With `COc1ccc2nc(NP(=O)(c3ccccc3)c3ccccc3)sc2c1`, the activation of IL-2 secretion was inactive: -0.963%.

Turning to `COc1cc(I)ccc1[As](=O)(O)O`, the activation of IL-2 secretion is inactive: 0.522%.

As for `O=P1(N(CCCl)CCCl)OCCCN1CCCl` (centres undefined), the activation of IL-2 secretion was inactive: -2.5%.

Regarding `O=P1(N(CCCl)CCCl)Nc2ccccc2N1`, the activation of IL-2 secretion is inactive: 2%.

For the compound `O=C(OC1CN2CCC1CC2)C12CC3CC(CC(C3)C1)C2` (centres undefined), the activation of IL-2 secretion is inactive: -3.31%.

`Cc1cc(=O)[nH]c(N[N+](=O)[O-])n1`: the activation of IL-2 secretion is inactive: -1.34%.

As for `Cc1c2c(nc3ccccc13)SC(C(Cl)Cl)C2` (centres undefined), the activation of IL-2 secretion is inactive: -2.46% [at 46.1 µM].

As to `O=[N+]([O-])c1cc(Oc2ccc([N+](=O)[O-])cc2C(F)(F)F)cc([N+](=O)[O-])c1`, the activation of IL-2 secretion was inactive: 1.47%.

With `Cc1ccc2nc3c(c(C)c2c1)CC(C(Cl)Cl)S3` (centres undefined), the activation of IL-2 secretion is inactive: -12.7% [at 46.1 µM].

With `Cc1ccc(OP(=O)(Nc2ccc([N+](=O)[O-])cn2)Oc2ccc(C)cc2)cc1`, the activation of IL-2 secretion was inactive: 1.05%.

As for `C[As](=O)(O)c1cccc(C(=O)O)c1`, the activation of IL-2 secretion was inactive: -34.9%.

In the case of `O=[As](O)(c1ccc(O)cc1)c1ccccc1O`, the activation of IL-2 secretion is inactive: -6.12%.

As to `COc1cc(C(=O)NCC2(N3CCOCC3)CCCCC2)ccc1OCC(C)C`, the activation of IL-2 secretion is inactive: -0.502%.

In the case of `O=[N+]([O-])c1ccc(-c2cc([N+](=O)[O-])c(O)c([N+](=O)[O-])c2)cc1`, the activation of IL-2 secretion was inactive: -3.3%.

As to `CCN(CC)C(=S)SC(NC=O)C(Cl)(Cl)Cl` (centres undefined), the activation of IL-2 secretion is inactive: -7%.

Regarding `CC(C)NC(=O)NP(=O)(Oc1ccccc1)Oc1ccccc1`, the activation of IL-2 secretion was inactive: -0.609%.

As for `O=[N+]([O-])c1cc([N+](=O)[O-])c(-c2ccn[nH]2)s1`, the activation of IL-2 secretion was inactive: 0.246% [at 46.1 µM].
